# In PubChem BioAssay AID602123 (The Scripps Research Institute Molecular Screening Center, 2011):
# Sequences of proteins named here, by UniProt entry; tags and fusion partners are left off.
# UniProt P0A9M0, whole entry: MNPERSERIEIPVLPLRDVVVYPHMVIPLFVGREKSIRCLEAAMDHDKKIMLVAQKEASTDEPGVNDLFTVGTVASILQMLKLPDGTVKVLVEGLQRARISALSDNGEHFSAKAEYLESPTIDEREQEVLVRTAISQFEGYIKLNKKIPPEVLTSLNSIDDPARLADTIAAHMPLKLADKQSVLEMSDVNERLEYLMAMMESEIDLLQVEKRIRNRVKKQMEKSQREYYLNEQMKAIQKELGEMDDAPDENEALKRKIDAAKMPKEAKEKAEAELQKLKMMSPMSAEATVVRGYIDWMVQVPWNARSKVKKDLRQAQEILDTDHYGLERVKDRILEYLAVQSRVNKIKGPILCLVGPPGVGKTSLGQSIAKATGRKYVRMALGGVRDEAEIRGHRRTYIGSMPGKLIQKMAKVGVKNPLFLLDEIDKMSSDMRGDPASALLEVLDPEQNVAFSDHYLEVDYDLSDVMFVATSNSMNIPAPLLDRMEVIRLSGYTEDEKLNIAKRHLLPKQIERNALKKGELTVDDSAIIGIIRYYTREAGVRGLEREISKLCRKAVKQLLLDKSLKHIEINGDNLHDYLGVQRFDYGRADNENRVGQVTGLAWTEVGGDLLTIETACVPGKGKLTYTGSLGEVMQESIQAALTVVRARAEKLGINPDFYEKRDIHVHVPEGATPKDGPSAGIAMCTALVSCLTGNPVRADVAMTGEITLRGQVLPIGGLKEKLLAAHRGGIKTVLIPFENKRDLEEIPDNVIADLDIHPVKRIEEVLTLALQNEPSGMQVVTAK
# The list shows a part of the results, in another mix than the full data. Some of these compounds have results that are not shown, active ones among them. Active and inactive are the calls of the source. Rule as the data show it: active = inhibition above about 13% (passing the limit was not always enough); inactive = the rest.
# Target: Lon protease (Escherichia coli (strain K12)) (UniProt P0A9M0)
# Assay: inhibitors of E. coli Lon protease, primary screen, biochemical, fluorescence polarization (AID 602123);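 also: 0% = enzyme with probe and DMSO and 100% = no enzyme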
# Settings: purified E. coli Lon protease, at 7.94 µM, active compounds read high
row,SMILES,inhibition
1,O=C(NCC1(N2CCCCC2)CCCCC1)c1cccc(Cl)c1,inactive: 1.9%
2,COc1cccc(C(=O)NCC2(N3CCCCC3)CCCCC2)c1,inactive: -8.53%
3,COc1ccc(Cl)cc1C(=O)NCC1(N(C)C)CCCCC1,inactive: 4.15%
4,COc1cc(C(=O)NCC2(N(C)C)CCCCC2)c([N+](=O)[O-])cc1OC,inactive: -0.49%
5,CN(C)C1(CNC(=O)c2ccc(Br)cc2)CCCCC1,inactive: -0.74%
6,CC(C)Oc1ccc(C(=O)NCC2(N(C)C)CCCCC2)cc1,inactive: -7.5%
7,O=C(OCCN1CCCC1)C(O)(c1ccccc1)c1ccccc1,inactive: -1.85%
8,CN(C)c1cccc(C(=O)NCC2(N(C)C)CCCCC2)c1,inactive: -1.49%
9,C=C(C)C#CC(O)(C(=O)OC1CCN(C)CC1)c1ccccc1 (stereo unspecified),inactive: 1.44%
10,COc1ccc(Br)c(C(=O)NCC2(N3CCCCC3)CCCCC2)c1,inactive: -13.7%
11,O=C(OC1CN2CCC1CC2)C(CO)(c1ccccc1)c1ccccc1 (stereo unspecified),inactive: -10.2%
12,Cc1ccc(C(=O)NCC2(N3CCCCC3)CCCCC2)cc1,inactive: -12.2%
13,CCN(CC)CC(C)C(C)OC(=O)C(O)(c1ccccc1)c1ccccc1 (stereo unspecified),inactive: 3.79%
14,COc1cc(SC)ccc1C(=O)NCC1(N(C)C)CCCCC1,inactive: -0.43%
15,CC(C)N1C(=O)CC2(CCN(CCOC(=O)C(O)(c3ccccc3)c3ccccc3)CC2)C1=O,inactive: -16.2%
16,CN1[C@@H]2CC[C@H]1CC(OC(=O)C(O)(c1ccccc1)c1ccccc1)C2 (stereo partly specified),inactive: 2.85%
17,O=C(NCC1(N2CCCCC2)CCCCC1)c1cc([N+](=O)[O-])ccc1Cl,inactive: -1.79%
18,COc1ccc(C(=O)NCC2(N(C)C)CCCCC2)cc1,inactive: -0.03%
19,CCN1CCCC(OC(=O)C2(O)c3ccccc3C=Cc3ccccc32)C1 (stereo unspecified),inactive: 2.09%
20,Cc1cc(C(=O)NCC2(N3CCCCC3)CCCCC2)ccc1[N+](=O)[O-],inactive: 4.89%
21,O=C(NCC1(N2CCCCC2)CCCCC1)c1cccc(Br)c1,inactive: 5.16%
22,C=CCN1CCN(CCOC(=O)C(O)(c2ccccc2)c2ccccc2)CC1,inactive: 7.59%
23,O=C(NCC1(N2CCCCC2)CCCCC1)c1cc(F)c(F)cc1Cl,inactive: 3.01%
24,Cc1ccccc1C(=O)NCC1(N2CCCCC2)CCCCC1,inactive: 3.05%
25,CN(C)c1ccc(C(=O)NCC2(N(C)C)CCCCC2)cc1,inactive: -3.61%
26,CN(C)C1CCCC1OC(=O)C(O)(c1ccccc1)c1ccccc1 (stereo unspecified),inactive: 8.03%
